As usually defined, the inhibition is the relative decrease from the control value, in per cent.

Consider four compounds from ChEMBL document CHEMBL4419165, “Fibcd1 for the prevention and treatment of diseases” (2014).

Experiment [1] deals with T1, Fibrinogen C domain-containing protein 1 (Homo sapiens) (UniProt Q8N539).
T1 sequence (whole entry): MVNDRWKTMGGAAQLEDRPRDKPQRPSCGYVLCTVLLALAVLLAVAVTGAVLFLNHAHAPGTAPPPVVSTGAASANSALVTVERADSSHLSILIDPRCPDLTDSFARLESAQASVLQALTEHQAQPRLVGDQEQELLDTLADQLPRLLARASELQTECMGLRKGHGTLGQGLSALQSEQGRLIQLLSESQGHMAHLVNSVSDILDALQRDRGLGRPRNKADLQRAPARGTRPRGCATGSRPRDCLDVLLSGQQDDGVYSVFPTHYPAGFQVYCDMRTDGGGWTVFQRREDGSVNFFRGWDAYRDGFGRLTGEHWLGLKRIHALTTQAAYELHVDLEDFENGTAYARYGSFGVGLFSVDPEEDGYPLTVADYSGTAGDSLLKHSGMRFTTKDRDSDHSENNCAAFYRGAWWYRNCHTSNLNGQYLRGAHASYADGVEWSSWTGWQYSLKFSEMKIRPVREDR
Description: Binding affinity to V5-His tagged FIBCD1 ecto-domain (54 to 461 residues) (unknown origin) assessed as reduction in binding between FIBCD1 and acetylated BSA at 50 mM by ELISA relative to control. For orientation: ELISA stands for enzyme-linked immunosorbent assay.

Experiment [2] has as its target T1, Fibrinogen C domain-containing protein 1 (Homo sapiens). Description: Binding affinity to V5-His tagged FIBCD1 ecto-domain (54 to 461 residues) (unknown origin) expressed in HEK293 cells assessed as reduction in binding between FIBCD1 and acetylated BSA by ELISA. The class given is cell-based.

Active and inactive are the calls of the source. No cut-off for these calls is given here. Bounds are passed on as bounds.

For the compound `C[C@H](N)C(=O)O`, the inhibition in experiment [1] was less than 50%. In experiment [2], the I50 entry is “inactive”.
Consider `N[C@@H]1C(O)O[C@H](CO)[C@@H](O)[C@@H]1O` (stereo partly drawn), for which the inhibition in experiment [1] is less than 50%. The I50 entry in experiment [2] was “inactive”.
With `N[C@H]1C(O)O[C@H](CO)[C@H](O)[C@@H]1O` (stereo partly drawn), in experiment [1], the inhibition is less than 50%. Further, the I50 result in experiment [2] is “inactive”.
In the case of `N[C@H]1C(O)O[C@H](CO)[C@@H](O)[C@@H]1O` (stereo partly drawn), the inhibition in experiment [1] is less than 50%. Also, the I50 result in experiment [2] is “inactive”.
